Assay results taken from ChEMBL document CHEMBL3124940, “Design, synthesis and biological evaluation of D-ring opened galantamine analogs as multifunctional anti-Alzheimer agents” (Eur J Med Chem, 2014).
Calls of active or inactive are those of the source. The calls are words filed in the database; no cut-off is given here.

System: Rattus norvegicus
Assay: Antialzheimer activity in Wistar rat scopolamine-induced cognition impairment model assessed as decrease in amount of errors plus baits not found during exploration at 1 umol/100 g body weight, ip treated for 5 mins prior to scopolamine-challenge measured after 20 to 120 mins by eight-arm radial maze test
Assay type: functional, organism-based
In short: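 Female 60-day-old Wistar rats (Han:Wist) trained in an eight-arm radial maze to error-free trials under 60 s on three consecutive days; each animal served as its own control. Test agent given i.p. in saline 5 min before scopolamine (0.05 mg/100 g b. wt., i.p. in saline). Errors plus baits not found after 10 min, and total searching time, recorded before and 20, 60, 120 min after scopolamine; n = 14, mean ± SEM.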

Nc1c2c(nc3ccccc13)CCCC2 [TACRINE]
Activity: Active
